# Results published in ChEMBL document CHEMBL5335800, “Focused Screening Identifies Different Sensitivities of Human TET Oxygenases to the Oncometabolite 2-Hydroxyglutarate” (J Med Chem, 2024).
# By UniProt entry, the sequences of proteins in these tests, tags left out. Where a name states a change or a piece, a line headed by the entry shows the natural chain unless it says otherwise.
# UniProt Q3URK3: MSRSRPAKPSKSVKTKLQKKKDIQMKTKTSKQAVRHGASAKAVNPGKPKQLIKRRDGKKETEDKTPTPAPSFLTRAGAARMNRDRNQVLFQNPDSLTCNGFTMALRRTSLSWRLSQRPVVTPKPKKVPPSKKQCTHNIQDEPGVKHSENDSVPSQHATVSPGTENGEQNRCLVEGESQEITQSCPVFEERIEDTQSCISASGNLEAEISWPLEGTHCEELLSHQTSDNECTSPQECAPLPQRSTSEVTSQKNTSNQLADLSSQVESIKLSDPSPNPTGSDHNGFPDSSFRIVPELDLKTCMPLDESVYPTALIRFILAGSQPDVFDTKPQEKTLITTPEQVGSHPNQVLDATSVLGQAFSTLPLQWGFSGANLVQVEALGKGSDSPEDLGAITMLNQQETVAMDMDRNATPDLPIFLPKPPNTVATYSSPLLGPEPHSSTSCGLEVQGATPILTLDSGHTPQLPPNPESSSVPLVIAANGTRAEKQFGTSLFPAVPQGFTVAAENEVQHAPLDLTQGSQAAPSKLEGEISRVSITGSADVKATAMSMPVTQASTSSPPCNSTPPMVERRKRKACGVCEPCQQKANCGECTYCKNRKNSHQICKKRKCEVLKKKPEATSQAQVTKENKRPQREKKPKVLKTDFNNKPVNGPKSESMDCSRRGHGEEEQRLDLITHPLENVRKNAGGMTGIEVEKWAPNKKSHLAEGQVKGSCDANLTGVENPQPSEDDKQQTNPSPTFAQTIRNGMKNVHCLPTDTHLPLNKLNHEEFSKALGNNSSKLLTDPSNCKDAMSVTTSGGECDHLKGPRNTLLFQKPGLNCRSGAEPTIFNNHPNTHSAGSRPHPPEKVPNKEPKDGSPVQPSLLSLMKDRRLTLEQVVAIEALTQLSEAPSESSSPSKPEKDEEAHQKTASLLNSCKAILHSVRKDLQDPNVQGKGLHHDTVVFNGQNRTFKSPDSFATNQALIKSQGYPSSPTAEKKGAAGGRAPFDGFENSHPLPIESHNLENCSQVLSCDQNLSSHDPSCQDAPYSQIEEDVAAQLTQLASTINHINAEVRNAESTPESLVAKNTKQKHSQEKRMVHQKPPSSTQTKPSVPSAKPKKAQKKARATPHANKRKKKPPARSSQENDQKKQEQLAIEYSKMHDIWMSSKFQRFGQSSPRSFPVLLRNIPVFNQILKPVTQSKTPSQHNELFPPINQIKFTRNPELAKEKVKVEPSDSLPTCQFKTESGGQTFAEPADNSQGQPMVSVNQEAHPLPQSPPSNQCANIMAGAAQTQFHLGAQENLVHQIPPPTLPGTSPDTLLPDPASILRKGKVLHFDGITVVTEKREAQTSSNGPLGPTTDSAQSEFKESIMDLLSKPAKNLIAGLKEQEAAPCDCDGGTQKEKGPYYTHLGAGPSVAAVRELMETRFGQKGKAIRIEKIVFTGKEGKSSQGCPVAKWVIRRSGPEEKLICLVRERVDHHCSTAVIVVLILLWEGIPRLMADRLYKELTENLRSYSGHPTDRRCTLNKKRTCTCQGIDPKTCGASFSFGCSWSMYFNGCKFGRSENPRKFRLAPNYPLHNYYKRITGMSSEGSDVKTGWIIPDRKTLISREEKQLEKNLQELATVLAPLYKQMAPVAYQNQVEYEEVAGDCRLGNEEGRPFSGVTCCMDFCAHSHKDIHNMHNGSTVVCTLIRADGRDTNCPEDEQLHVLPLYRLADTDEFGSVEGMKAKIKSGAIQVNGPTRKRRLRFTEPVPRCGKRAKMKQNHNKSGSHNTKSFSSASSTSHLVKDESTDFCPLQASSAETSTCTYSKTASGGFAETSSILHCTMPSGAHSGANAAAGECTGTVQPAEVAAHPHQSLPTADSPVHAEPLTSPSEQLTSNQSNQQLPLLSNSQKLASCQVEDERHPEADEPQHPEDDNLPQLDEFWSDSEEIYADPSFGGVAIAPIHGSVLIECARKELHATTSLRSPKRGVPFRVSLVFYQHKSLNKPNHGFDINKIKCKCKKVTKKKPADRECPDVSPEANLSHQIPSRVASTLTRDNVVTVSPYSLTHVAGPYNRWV
# Legend:
# [1] = target: Methylcytosine dioxygenase TET1 (Mus musculus, UniProt Q3URK3)
# [2] = target: T1, Methylcytosine dioxygenase TET2 (Homo sapiens, UniProt Q6N021); settings: sf9
# [3] = target: T1, Methylcytosine dioxygenase TET2; test: biochemical
Structure (SMILES),IC50 [1],IC50 [2],IC50 [3]
O=C(O)CC[C@@H](O)C(=O)O,4000 µM,–,–
Cc1nc(C(=O)NCC(=O)O)c(O)c2ccc(Oc3ccccc3)cc12 [ROXADUSTAT],–,≥ 100 µM,≥ 100 µM
